PMC4963535, “Structure-guided development of heterodimer-selective GPCR ligands” (Nature Communications, 2016)

Chains of the proteins cited; added tags and fusions are not shown.
UniProt P35462, whole entry: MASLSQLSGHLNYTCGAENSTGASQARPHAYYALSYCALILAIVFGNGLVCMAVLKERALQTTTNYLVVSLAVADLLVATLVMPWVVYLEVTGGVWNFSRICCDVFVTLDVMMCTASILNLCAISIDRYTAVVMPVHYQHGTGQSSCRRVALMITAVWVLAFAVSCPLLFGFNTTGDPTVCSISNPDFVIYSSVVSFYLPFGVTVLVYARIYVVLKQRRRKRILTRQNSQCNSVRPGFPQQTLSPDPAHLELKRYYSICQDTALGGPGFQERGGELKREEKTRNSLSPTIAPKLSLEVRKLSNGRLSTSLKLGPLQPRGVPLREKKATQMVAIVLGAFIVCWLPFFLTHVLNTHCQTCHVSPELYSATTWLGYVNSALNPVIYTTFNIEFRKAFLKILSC
UniProt P21917, whole entry: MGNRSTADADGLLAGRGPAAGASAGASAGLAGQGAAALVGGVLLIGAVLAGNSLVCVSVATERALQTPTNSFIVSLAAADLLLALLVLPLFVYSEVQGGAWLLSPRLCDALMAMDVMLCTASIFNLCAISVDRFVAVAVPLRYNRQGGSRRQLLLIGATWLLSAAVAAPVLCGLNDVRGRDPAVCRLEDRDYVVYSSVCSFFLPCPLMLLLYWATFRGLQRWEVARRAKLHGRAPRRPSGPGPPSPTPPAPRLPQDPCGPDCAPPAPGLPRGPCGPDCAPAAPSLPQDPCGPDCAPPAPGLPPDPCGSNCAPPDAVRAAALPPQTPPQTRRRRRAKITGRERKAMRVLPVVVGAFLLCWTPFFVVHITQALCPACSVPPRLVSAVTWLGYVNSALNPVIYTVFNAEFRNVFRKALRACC
UniProt O95665, whole entry: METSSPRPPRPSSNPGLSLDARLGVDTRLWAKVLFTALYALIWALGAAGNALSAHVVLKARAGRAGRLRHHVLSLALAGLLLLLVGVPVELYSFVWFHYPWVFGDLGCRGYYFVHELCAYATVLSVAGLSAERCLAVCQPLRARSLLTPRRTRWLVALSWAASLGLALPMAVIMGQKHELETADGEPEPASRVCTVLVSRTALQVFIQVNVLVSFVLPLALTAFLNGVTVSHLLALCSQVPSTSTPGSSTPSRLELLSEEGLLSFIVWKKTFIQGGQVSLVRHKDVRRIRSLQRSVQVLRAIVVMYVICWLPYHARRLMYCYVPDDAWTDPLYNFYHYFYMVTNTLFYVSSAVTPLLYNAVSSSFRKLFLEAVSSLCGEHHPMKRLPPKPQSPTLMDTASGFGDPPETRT

Legend:
Type in all cases: binding
[1] = molecular target: hD3R (Homo sapiens, UniProt P35462); test: [3H]spiperone displacement, membranes from CHO cells stably expressing hD3R; conditions: read-out: Ki hD3R, mean ± s.d.
[2] = molecular target: hD4.4R (Homo sapiens, UniProt P21917); test: [3H]spiperone displacement, membranes from CHO cells stably expressing hD4.4R; conditions: read-out: Ki hD4.4R, mean ± s.d.
[3] = molecular target: hNTS2R (Homo sapiens, UniProt O95665); test: [3H]NT(8-13) displacement, homogenates from transiently transfected HEK 293T cells, human NTS2R; conditions: read-out: Ki hNTS2R, mean ± s.d.

COCCNC(=O)c1ccc(-c2ccc(-n3cc(CCCCN4CCN(c5ccccc5OC)CC4)nn3)cc2)cc1
Ki [1]: 3.4 nM | Ki [2]: 33 nM | Ki [3]: 4200 nM
